From patent US7767409B2, “Method for detection of substance bound to nuclear receptor” (Fujikura Kasei Co., Ltd., priority 2005, dated 2010)

Amino acid sequences for entries named in this document (tags omitted). Residues count along the entry.
UniProt Q92731, 264-498 limits assumed: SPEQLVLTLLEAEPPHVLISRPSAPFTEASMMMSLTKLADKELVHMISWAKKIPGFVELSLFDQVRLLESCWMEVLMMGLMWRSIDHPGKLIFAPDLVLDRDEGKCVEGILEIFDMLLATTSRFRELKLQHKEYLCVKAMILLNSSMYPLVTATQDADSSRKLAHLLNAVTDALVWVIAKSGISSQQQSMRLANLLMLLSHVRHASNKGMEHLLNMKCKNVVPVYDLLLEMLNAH

Target: T1, human estrogen receptor β-GST fusion protein (ER-β) (Homo sapiens, UniProt Q92731)
T1 construct: made in house; host or cells: Escherichia coli BL21
Test: Assay of ligand using coactivator SRC1-bound plate, ER-β
Assay type: biochemical
Conditions: HRP-labeled anti-GST antibody, 450 nm, FIG. 6

C[C@]12CC[C@@H]3c4ccc(O)cc4CC[C@H]3[C@@H]1CC[C@@H]2O [17 β-estradiol]
OD (binding of receptor to immobilized coactivator), agonist mode: increase in OD was observed
